Earlier results as cited in US5808139A (Ligand Pharmaceuticals Incorporated, priority 1994, dated 1998).

Molecular target: T1, human progesterone receptor (Homo sapiens, UniProt P06401)
T1 sequence (P06401 1-933): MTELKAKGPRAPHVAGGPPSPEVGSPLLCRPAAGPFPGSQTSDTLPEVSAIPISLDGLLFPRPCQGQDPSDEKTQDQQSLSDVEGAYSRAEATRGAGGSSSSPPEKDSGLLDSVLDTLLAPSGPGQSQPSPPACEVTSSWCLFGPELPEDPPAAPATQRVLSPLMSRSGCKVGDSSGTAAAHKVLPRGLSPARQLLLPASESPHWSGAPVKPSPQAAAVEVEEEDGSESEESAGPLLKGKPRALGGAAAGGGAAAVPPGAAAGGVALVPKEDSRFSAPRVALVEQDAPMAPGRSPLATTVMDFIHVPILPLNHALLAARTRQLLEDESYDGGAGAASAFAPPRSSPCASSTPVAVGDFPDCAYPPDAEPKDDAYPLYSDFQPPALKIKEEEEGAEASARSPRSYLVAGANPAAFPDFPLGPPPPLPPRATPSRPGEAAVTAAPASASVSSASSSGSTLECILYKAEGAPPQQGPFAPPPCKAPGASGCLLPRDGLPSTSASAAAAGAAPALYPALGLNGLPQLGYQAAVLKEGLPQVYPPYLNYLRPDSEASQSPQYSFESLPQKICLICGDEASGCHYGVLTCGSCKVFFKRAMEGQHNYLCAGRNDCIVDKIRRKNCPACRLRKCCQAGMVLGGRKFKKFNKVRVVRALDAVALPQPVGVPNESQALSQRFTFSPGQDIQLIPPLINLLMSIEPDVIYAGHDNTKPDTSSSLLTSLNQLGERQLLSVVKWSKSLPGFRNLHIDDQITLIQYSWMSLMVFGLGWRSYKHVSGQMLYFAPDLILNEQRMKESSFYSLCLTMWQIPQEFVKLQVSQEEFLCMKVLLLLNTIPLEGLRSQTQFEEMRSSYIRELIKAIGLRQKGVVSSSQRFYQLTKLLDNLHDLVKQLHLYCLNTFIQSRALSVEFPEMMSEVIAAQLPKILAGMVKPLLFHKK
Design: expressed in transfected cells; host or cells: CV-1 cells (calcium phosphate transfection), whole cell extract
Conditions: general statement on antagonists; cited from earlier work

CC#C[C@]1(O)CC[C@H]2[C@@H]3CCC4=CC(=O)CCC4=C3[C@@H](c3ccc(N(C)C)cc3)C[C@@]21C [RU-486, reference compound]
Specific binding of progesterone to its ligand binding site: can increase the specific binding of progesterone
